Nrf2 inh: inhibitors of Nrf2 signaling; A549 ARE-Fluc reporter, luciferase luminescence, 18-24 h; 360,000 compounds, 2.1% hits; AID 504444; Potency, µM (titrated, usually from 46 µM), inactives show at the top dose activity change, negative = inhibition, hits mostly inhibitors; also: potency is read from the fitted curve at half-maximal effect; % is scaled to controls: 0 for no effect and ±100 for the full control effect; nearly all actives have a fitted effect of over 60% in size
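Quantitative HTS in A549 cells stably bearing an antioxidant response element-firefly luciferase construct. Inhibition of Nrf2-driven transcription was scored by luminescence after 18-24 h of compound exposure at 37 °C.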
miR-21 reporter: miR-21 reporter, rising signal; HeLa miR-21 FLuc reporter, luciferase, 48 h; Potency, µM (doses to about 38.3 µM), for inactives: at the highest dose reporter change, positive = more light; 340,000 tested, under 10 active; AID 2288; active = well fitted rising curve with a large enough effect; inconclusive = small, poorly fitted or top-dose-only effect; inactive = no such curve, though single readings can be large or run the other way;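 further: % of control where 0% means no effect; miR-21 action dims this reporter so a rising signal means less miR-21 action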
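Luminescence from a firefly luciferase reporter carrying a miR-21 binding site downstream, stably expressed under a CMV promoter in HeLa cells that make miR-21 endogenously, reports miRNA modulation after 48 h compound exposure up to approximately 40uM final.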
Nrf2 activator: Nrf2 pathway activation; Potency, µM (series often up to 46.1 µM), inactives show at the highest dose activation, actives largely listed as activators; AID 624171; 410,000 compounds, 0.31% hits; AREc32 ARE-luciferase reporter (MCF7-derived line), luminescence, 24 h; also: potency is read from the fitted curve at half-maximal effect; % of control where 0% means no effect; nearly all actives have a fitted effect of over 65% in size
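ARE-driven firefly luciferase activity in AREc32 cells measured after a 24 hr compound exposure at 37 deg C, using Steady-Glo reagent and a 30 min room-temperature hold.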
Mito fusion act: mitochondrial division inhibition or fusion activation | 320,000 compounds, 0.23% hits | Potency, µM (titrated, usually from 46.1 µM), inactives show at the highest dose growth rescue (activation), actives largely listed as activators | S. cerevisiae fusion-defective mutant growth rescue, CellTiterGlo 48 h; also: potency is read from the fitted curve at half-maximal effect; % of control where 0% means no effect; nearly all actives have a fitted effect of over 45% in size
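Compounds are tested for their ability to restore growth of mitochondrial fusion-defective yeast strains at non-permissive 37C in YPEG medium over 48 hours. Viability is quantified by luciferase luminescence.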
A549 tox-1: A549 cytotoxicity, counter-screen for Nrf2 inhibitors | 390,000 compounds, 0.16% hits | Potency, µM (doses to about 46 µM), inactives show at the top dose activity change, negative = cytotoxicity, most hits filed as inhibitors | A549 ARE-Fluc cells, CellTiter-Fluor viability, 18-24 h; also: potency is read from the fitted curve at half-maximal effect; % is scaled to controls: 0 for no effect and ±100 for the full control effect
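A549 ARE-Fluc cells in 5% FBS OPTI-MEM, 5000 cells/well, rested 2 h then exposed to compounds in concentration-response for 18-24 h at 37 °C. Viability by CellTiter-Fluor fluorescence (Ex 405/Em 525) after 30 min; luciferase luminescence (BugLite, 15 min, RT) read afterwards.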
FLuc counter 3: counter-screen for Nrf2 inhibitors: firefly luciferase enzyme inhibition; shares compounds with Nrf2 inh; purified firefly luciferase, luminescence inhibition; Potency, µM (doses to about 57.5 µM), for inactives: at the top dose activity change, negative = inhibition, hits mostly inhibitors; 1,400 compounds, 4% hits; AID 720522; also: potency is read from the fitted curve at half-maximal effect; % is scaled to controls: 0 for no effect and ±100 for the full control effect; nearly all actives have a fitted effect of over 65% in size
A549 tox-2: counter-screen for Nrf2 inhibitors: cytotoxicity in A549 ARE cells | shares compounds with Nrf2 inh | A549 ARE-Fluc cells, cytotoxicity counterscreen | Potency, µM (titrated, usually from 46.1 µM), without a hit: at the top dose activity change, negative = cytotoxicity, usual class: inhibitors | 1,400 compounds, 2% hits | AID 720523;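 also: potency is read from the fitted curve at half-maximal effect; cells exposed to compounds for 18 to 24 hours; % is scaled to controls: 0 for no effect and ±100 for the full control effect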
Nrf2 ARE inh: confirmation of Nrf2 inhibitors in A549 ARE reporter cells; Potency, µM (series often up to 46.1 µM), for inactives: at the highest dose activity change, negative = inhibition, hits mostly inhibitors; shares compounds with Nrf2 inh; 1,400 compounds, 74% hits; A549 ARE-firefly luciferase reporter, luminescence; also: potency is read from the fitted curve at half-maximal effect; % is scaled to controls: 0 for no effect and ±100 for the full control effect; nearly all actives have a fitted effect of over 65% in size
* hit, by the source's call; u = inconclusive; x = no result shown; [ ] = another dose, or the depositor's remark. Only some compounds are listed: those with a hit (about 2.3% of all), similar ones and a draw of the others. Unless noted, calls follow the shape of the dose curve; as a rule, active = well fitted curve in the direction sought with a large enough effect; inconclusive = small, poorly fitted or top-dose-only effect, or another doubt; inactive = no such curve, though single readings can be large; an effect the other way counts as inactive or inconclusive.

Values run as follows: FLuc counter 3, Nrf2 inh, Nrf2 ARE inh, A549 tox-1, A549 tox-2, Nrf2 activator, miR-21 reporter, Mito fusion act
COc1ccc(CN(C)Cc2nc(Cc3cccc(F)c3)no2)c2cccnc12
 : 0%, 3.3µM*, u, u, -7%, 2%, 9%, 5%
COc1cccc(-n2cc(CN(C)Cc3nc(Cc4cccc(F)c4)no3)cn2)c1
 : x, -13%, x, 9%, x, 0%, -6%, 20%
CCCCn1c(CN2CCN(c3ccccc3)CC2)nc2c1c(=O)n(C)c(=O)n2C
 : 2%, 4.1µM*, 15µM*, u, -12%, 0%, 2%, 0%
COc1ccc(Oc2c(C(F)(F)F)oc3c(CN4CCCC(C)C4)c(O)ccc3c2=O)cc1 (stereo unspecified)
 : x, 7%, x, -6%, x, 1%, -7%, x
CC1(C)COCN1S(=O)(=O)c1ccc(C(=O)Nc2nnc(-c3ccc(Cl)s3)o2)cc1
 : -15%, 6.3µM*, 5.2µM*, u, u, -1%, 16%, 2%
CCN(c1ccccc1)S(=O)(=O)c1ccc(C(=O)Nc2nnc(-c3ccco3)o2)cc1
 : 1%, 5.2µM*, 5.2µM*, -22%, -26%, -2%, u, u
CC1CCCCN1S(=O)(=O)c1ccc(C(=O)Nc2nnc(-c3ccccc3Cl)o2)cc1 (stereo unspecified)
 : -2%, 5.2µM*, 6.5µM*, u, u, 0%, 0%, 3%
CS(=O)(=O)c1ccccc1-c1nnc(NC(=O)c2ccc(S(=O)(=O)N3CCCC3)cc2)o1
 : x, -5%, x, 1%, x, -1%, x, 2%
O=C(Nc1nnc(-c2ccccc2Cl)o1)c1ccc(S(=O)(=O)N2CCCCCC2)cc1
 : -9%, u, 21µM*, -15%, u, -2%, -1%, -1%
Cc1ccc(C)c(Nc2cc(C(=O)NC3CCCC3)c3ccccc3n2)c1
 : x, 12%, x, 18%, x, 1%, 2%, x
Cc1cc(C)cc(Oc2coc3cc(OCC(=O)NC4CCCCC4)ccc3c2=O)c1
 : x, 14%, x, 9%, x, -1%, -6%, x
CCOc1ccc(C(=O)Nc2ccc(S(=O)(=O)N(Cc3ccccc3)c3ccccc3)cc2)cc1
 : -1%, 2.1µM*, 1.6µM*, -10%, -1%, -1%, u, x
CCCN(CCC)S(=O)(=O)c1ccc(C(=O)Nc2nnc(-c3cccc(OC)c3)o2)cc1
 : 2%, 6.5µM*, 4.6µM*, u, u, -1%[9.22 µM], -3%, -5%
CCc1nnc(NC(=O)c2ccc(S(=O)(=O)N3CCCC(C)C3)cc2)o1 (stereo unspecified)
 : x, u, x, -16%, x, -1%, 15%, -3%
CC1CCCN(S(=O)(=O)c2ccc(C(=O)Nc3nnc(-c4ccco4)o3)cc2)C1 (stereo unspecified)
 : -1%, 8.2µM*, x, -18%, u, 3%, 2%, 2%
CCOCCn1ccc2c(OCC(=O)NCc3ccc(F)cc3)cccc2c1=O
 : x, x, x, 1%, x, 0%, 2%, x
COc1ccc(NC(=O)c2oc3ccccc3c2NC(=O)Cc2coc3ccc(C)cc23)cc1
 : x, -20%, x, -8%, x, 3%, -43%, x
CCc1cccc(N2C(=O)N(CC(=O)NCc3cccc(OC)c3OC)c3ccccc3S2(=O)=O)c1
 : x, x, x, -18%, x, 0%, 28%, x
CCOc1ccccc1C(=O)NCC(=O)N1CCN(Cc2ccc3c(c2)OCO3)CC1
 : -1%, 4.6µM*, 5.2µM*, -4%, -1%, 2%, x, 3%
COc1ccccc1C(=O)N1CCN(Cc2ccc3c(c2)OCO3)CC1
 : x, 21%, x, 1%, x, -1%, 1%, 1%

Some of these compounds in order of their number in Nrf2 inh, low to high:
| Compound | Nrf2 inh | Nrf2 ARE inh | Nrf2 activator | miR-21 reporter |
| --- | --- | --- | --- | --- |
| COc1ccc(CN(C)Cc2nc(Cc3cccc(F)c3)no2)c2cccnc12 | 3.3µM* | u | 2% | 9% |
| CCN(c1ccccc1)S(=O)(=O)c1ccc(C(=O)Nc2nnc(-c3ccco3)o2)cc1 | 5.2µM* | 5.2µM* | -2% | u |
| CC1(C)COCN1S(=O)(=O)c1ccc(C(=O)Nc2nnc(-c3ccc(Cl)s3)o2)cc1 | 6.3µM* | 5.2µM* | -1% | 16% |

Single records, from the list above:
CCCN(CCC)S(=O)(=O)c1ccc(C(=O)Nc2nnc(-c3cccc(OC)c3)o2)cc1 in the list: FLuc counter 3: 2%; Nrf2 inh: 6.5µM*; Nrf2 ARE inh: 4.6µM*; A549 tox-1: u; A549 tox-2: u; Nrf2 activator: -1%[9.22 µM]; miR-21 reporter: -3%; Mito fusion act: -5%
O=C(Nc1nnc(-c2ccccc2Cl)o1)c1ccc(S(=O)(=O)N2CCCCCC2)cc1 in the list: FLuc counter 3: -9%; Nrf2 inh: u; Nrf2 ARE inh: 21µM*; A549 tox-1: -15%; A549 tox-2: u; Nrf2 activator: -2%; miR-21 reporter: -1%; Mito fusion act: -1%

Compound activity from PubChem BioAssay.
